# scFv variants of Ab-95 (light chain) against a SARS-CoV-2 spike peptide

From the AlphaSeq antibody data of Engelhart et al. 2022 (doi:10.1038/s41597-022-01779-4), copy in the FLAb collection.

All variants were tested on one target, the spike HR2 peptide PDVDLGDISGINAS (SARS-CoV-2).

Ab-95 is the parent antibody, in scFv form: VH, then the linker GGGGSGGGGSGGGGS, then VL. The heavy chain is unchanged in all variants.
VH: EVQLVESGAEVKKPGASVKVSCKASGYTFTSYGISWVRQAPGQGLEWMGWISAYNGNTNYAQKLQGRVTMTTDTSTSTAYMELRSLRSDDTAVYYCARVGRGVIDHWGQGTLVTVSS
VL: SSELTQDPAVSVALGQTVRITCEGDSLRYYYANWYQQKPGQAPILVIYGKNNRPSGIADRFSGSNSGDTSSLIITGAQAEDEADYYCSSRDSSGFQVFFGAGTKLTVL

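Phage display of a naive human antibody library on the peptide gave the parent. AAYL52 was designed without a model: most single CDR substitutions and a random sample of double and triple ones. In AlphaSeq, yeast of one mating type display the scFv and yeast of the other type display the target. Pairs that bind mate more often; barcode pairs of the diploids are counted by sequencing. The ratio of observed to expected reads was calibrated, replicate by replicate, on BCL2-family standards whose Kd was known from biolayer interferometry. There are three technical replicates.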

Positions count from residue 1 of the parent VL; D25N puts N in place of D.
Scale: log10 of Kd in nM, estimated from mating counts; low values are strong binders.
A mean of the replicates is given; it leaves out those without a signal.
"no signal" marks a missing value. The strain was present, yet no cells mated with the target were sequenced in any replicate, which points to weak or no binding.
For reference, the parent read 2.31 as the reference entry and 2.25 as a member of this library.
Three control strains display no target. For library AAYL52, 28% of the pairings with them gave a signal, with a median of 3.91 and one signal in twenty below 2.90, so weak values seen in few replicates may be background.

changes	log10 Kd (nM), mean	replicates with signal
D25N R28E G94L	2.77	3/3
Y29D K50E G94K	1.94	3/3
L27A S88L F95H	5.69	1/3
N52L S89G F95Q	1.80	3/3
Y29G S55G F95E	2.90	3/3
Y29A N51V F98A	2.99	1/3
D25E N52G R90Y	no signal	0/3
S26D N33T Q96W	4.42	1/3
Y29W A32R G49D	no signal	0/3
D25Y R28W Y30D	2.18	3/3
E23H S26M S55D	2.38	3/3
D91K F95P Q96I	3.84	1/3
P54M S93G F95K	3.01	2/3
G24W N33D S55A	3.74	1/3
Y30A R53S F95M	1.87	3/3
L27D G49W G94S	3.97	1/3
N51S F95W Q96W	2.49	3/3
A32Q K50A V97R	4.52	2/3
D25I A32W F95L	3.39	1/3
Y31H N51P G94H	3.54	1/3
L27M N51M S93G	3.45	2/3
N33T S93T Q96K	3.62	3/3
G49N R53D Q96A	3.48	3/3
L27A Y30G D91W	3.05	1/3
G24D R90T G94S	4.40	2/3
P54W R90C	5.83	1/3
Y31A F98Y	1.12	3/3
N33H S88R V97C	3.72	2/3
E23H G24S N51E	3.07	3/3
A32W F95I V97Q	no signal	0/3
Y31K N33G R53F	4.23	2/3
N33H S55G S89K	no signal	0/3
N51E R53K F98L	3.07	3/3
K50S R53A D91W	no signal	0/3
Y31R A32V S92M	2.62	3/3
E23L G24M R90A	3.81	1/3
N51I D91Y V97I	5.56	1/3
G24H Y29L R53W	4.03	1/3
L27Y G94R F98K	3.47	1/3
S26F Y30D G94C	2.24	3/3
K50Y S92I	3.52	2/3
Y31W G49P	4.40	3/3
N51M N52H	4.73	1/3
Y31S N52T V97D	3.10	3/3
N33K G49V	4.62	1/3
Y29C A32T S92P	3.09	3/3
G24M P54T S89F	3.39	1/3
Y29E S55P S93T	no signal	0/3

The 4 strongest on average among those seen in every replicate, once more:

changes	log10 Kd (nM), mean	replicates with signal
Y31A F98Y	1.12	3/3
N52L S89G F95Q	1.80	3/3
Y30A R53S F95M	1.87	3/3
Y29D K50E G94K	1.94	3/3